One test has as its system NCI-N87 cells. The experiment in a line: Cytotoxicity (cell viability, CellTiter-Glo, 6 d). Type of test: cell-based. The note with it: NCI-N87, agent alone, 384-well format (footnote a). As for the experimental part: (§1) Compounds were added using Tecan D300e liquid. […] Synergy scores were calculated using LOEWE synergy model.
(Cellular ATP, detected with luciferase, serves as a proxy for viable cell number.)

Test [1] deals with HCC-1954 cells. The experiment in a line: Dose-matrix combination assay (synergy score, Loewe model). It counts as cell-based. The note with it: combination with AZD6738; for Synergy score S: HCC-1954, 6 d. The protocol: as §1
(§2) The screening of synergistic drug combinations can be accomplished by performing a dose-matrix assay. Therefore, two drugs are serial diluted and mixed at every dose level, yielding a dose-matrix. The drug combination can be additive if the effects of the combination are identical to the added effects of the single agents. However, the effects of the combination might also be stronger than the activity of the single agents. This scenario is termed synergy, whereas weaker combination effects compared to the single agents are termed antagonism. A dose-matrix assay is depicted schematically in FIG. 2 which illustrates the outcomes of a dose-matrix assay: additivity, antagonism and synergy.
The screening was conducted by serial diluting the duocarmycin derivative DUBA (10) and the DDR inhibitors. […] DUBA was combined in a dose-matrix assay with hycanthone. The cell viability was measured after 6 d of treatment using the CellTiter-Glo assay kit. The signals of the cell viability assay were normalized to untreated cells and fitted. […] By subtracting the modeled data from the fitted data, an excess matrix was generated. The excess matrix can be considered as a visualization of the differences between model and actual data which also highlights spots of either high synergy or antagonism. The quantification of the combination effects, however, was performed by calculating synergy scores. […]
The scattering of S was determined in a sham control experiment to define a cutoff for classifying a combination as truly synergistic or antagonistic. Thus seven different compounds were combined with itself on four different cell lines and the three-σ confidence interval was calculated around the mean of the measurement. […]
Synergy scores (S) were obtained from the combination experiments that indicated additivity […] if model and actual response were equal. […] The magnitude of the score determined the extent of the combination effects.

The subject of the next test is MDA-MB-453 cells. Described as above. It counts as cell-based. The note with it: combination with AZD6738. As for the experimental part:
as §1, §2

The test system of the next test is Calu-3 cells. The experiment in a line: MNED curve-shift assay. It counts as cell-based. The settings on record: read-out: IC50 of ADC + AZD6738, AZD6738 constant at MNED (400 nM). An excerpt: (§3) Therefore a curve-shift assay system was established. In a first step, a dose-response curve (DRC) is obtained by treating a certain cell line with an inhibitor. The maximum non-efficacious dose (MNED) can be derived from this DRC. MNED is the highest dose, that can be added to a certain cell line without affecting the viability. The activity of the ADC is confirmed in a separate experiment. Finally, a combination experiment can be conducted. Therefore, the ADC and ADC plus inhibitor at MNED are added to the cells. The inhibitor is tested in parallel at MNED as a control. Due to the application of inhibitor at MNED, no reduction in cell viability caused by the inhibitor is expected. Three outcomes are possible: 1) The combination of ADC plus inhibitor is equipotent as the ADC only. […] Such a result would be interpreted as depotentiation. […] In this case, the potency of the ADC is potentiated.
(§4) Potentiation effects are expressed as dose-reduction indices (DRI), which can be calculated by dividing the IC50-value of ADC by the IC50-value of ADC plus inhibitor according to eq. 1
(§5) Evaluation was performed using GraphPad Prism version 6.05.
(§6) The determination of dose-reduction indices (DRI) in a maximum non-efficacious dose (MNED) curve-shift assay is a 3-step process as depicted exemplarily in FIG. 13. The cytotoxicity of the ADC is confirmed in a cell viability assay in an initial step. […] In the second step. the MNED of the ATRi was determined. […] In order to obtain a full […] for the combination, the starting concentration of the ADC was lowered compared to the experiment in step 1.

Test [2] deals with HCC-1954 cells. Put plainly: MNED curve-shift assay. Type of test: cell-based. The note with it: read-out: IC50 of ADC + AZD6738, AZD6738 constant at MNED (250 nM).
Source text: as §3, §4, §5, §6

In a further test the test system is MDA-MB-468 cells. Put plainly: MNED curve-shift assay. It counts as cell-based. The settings on record: MDA-MB-468 (HER2-negative).
Source text: as §3, §4, §5, §6

Test [3] concerns HCC-1954, Calu-3, SK-BR-3 and MDA-MB-468 cells. The experiment in a line: MNED curve-shift assay, DRIs condensed regardless of cell line. It counts as cell-based. The settings on record: ADC combined with ATRi (AZD6738, VE-822) at MNED.
Source text: as §3, §4

Test [4] concerns HCC-1954 cells. Put plainly: Cytotoxicity (cell viability, CellTiter-Glo, 6 d). The settings on record: HCC-1954, 6 d.

Read-outs that look alike come from different tables or passages of the source.

As usually defined, the IC50 is the concentration that gives 50% inhibition.

For the substance Kadcyla, the IC50 with NCI-N87 cells was found to be 0.1 ± 0.02 nM; with Calu-3 cells, 37 ± 22 nM; in the test with HCC-1954 cells [2], 0.4 ± 0.2 nM; with MDA-MB-468 cells (VE-822 constant at MNED (300 nM), read-out: IC50 of ADC + VE-822), 31 ± 1 nM; in the test on MDA-MB-468 cells (read-out: IC50 of ADC + AZD6738, AZD6738 constant at MNED (300 nM)), 30 ± 1 nM. For the same substance, the “Synergy score S” value in the test on HCC-1954 cells [1] is on record as 1.3±0.7; in the test on MDA-MB-453 cells, 1.1±0.3. Further, the “Synergy score, single excluded measurement” value in the test with HCC-1954 cells [1] (HCC-1954, measurement excluded from the mean) was found to be 6.4. For the same substance, the “mean DRI, condensed regardless of cell line” value in test [3] was 1.3.
As for trastuzumab: αHER2 mAb, naked antibody, the “Synergy score S” value with HCC-1954 cells [1] is listed as −0.2±0.2. Also, in the test on HCC-1954 cells [4], the “anti-proliferative effects (in words)” value is recorded as “did not show any anti-proliferative effects”.
